# Experimental data taken from patent publication US7687482B2, “Bisphosphonate compounds and methods” (The Board of Trustees of the University of Illinois, priority 2006, dated 2010).
# Amino acid sequences for entries named in this document (tags omitted).
# UniProt P14324, whole entry: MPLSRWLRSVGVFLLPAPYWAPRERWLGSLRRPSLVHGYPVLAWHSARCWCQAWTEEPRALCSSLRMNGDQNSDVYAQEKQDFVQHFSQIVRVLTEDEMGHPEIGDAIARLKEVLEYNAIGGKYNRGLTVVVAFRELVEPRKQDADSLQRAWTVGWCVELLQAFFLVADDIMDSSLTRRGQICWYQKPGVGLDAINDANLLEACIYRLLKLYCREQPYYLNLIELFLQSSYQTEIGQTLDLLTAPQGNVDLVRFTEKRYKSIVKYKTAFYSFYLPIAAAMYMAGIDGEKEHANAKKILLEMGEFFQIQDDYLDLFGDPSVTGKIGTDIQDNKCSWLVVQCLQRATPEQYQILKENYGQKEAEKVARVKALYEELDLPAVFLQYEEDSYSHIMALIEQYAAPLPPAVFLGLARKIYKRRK
# Legend:
# D. discoideum = D. discoideum growth inhibition; type: cell-based, Dictyostelium discoideum; settings: read-out: D. discoideum IC50
# Gammadelta T cell = Gammadelta T cell stimulation; type: cell-based, human; settings: read-out: Gammadelta T cell stimulation, EC50
# Human FPPS = Human FPPS (Homo sapiens, UniProt P14324); test: Human FPPS inhibition; type: biochemical; settings: read-out: Human FPPS Ki
Compound,IC50 (D. discoideum),EC50 (Gammadelta T cell),Ki (Human FPPS)
CCCC[S+](C)CC(O)(P(=O)([O-])O)P(=O)(O)O (stereo not drawn),8.3 µM,261 µM,4.34 nM
C[S+](CCc1ccccc1)CCC(O)(P(=O)([O-])O)P(=O)(O)O (stereo not drawn),5.73 µM,309 µM,4.92 nM
CCC[S+](C)CC(O)(P(=O)([O-])O)P(=O)(O)O (stereo not drawn),11.2 µM,52 µM,5.14 nM
C[S+](CCCOc1ccccc1)CC(O)(P(=O)([O-])O)P(=O)(O)O (stereo not drawn),8.87 µM,217 µM,3.44 nM
C[S+](C)CCC(O)(P(=O)([O-])O)P(=O)(O)O (stereo not drawn),7.51 µM,23.7 µM,5.24 nM
O=P([O-])(O)C(O)(CC[S+]1CCCCC1)P(=O)(O)O (stereo not drawn),13.4 µM,200 µM,3.51 nM
O=P([O-])(O)C(O)(C[S+]1CCCC1)P(=O)(O)O (stereo not drawn),5.95 µM,17.3 µM,3.54 nM
CCC[S+](C)CCC(O)(P(=O)([O-])O)P(=O)(O)O (stereo not drawn),14.6 µM,43.5 µM,3.36 nM
O=P([O-])(O)C(O)(C[S+]1CCC(c2ccccc2)C1)P(=O)(O)O (stereo not drawn),7.15 µM,414 µM,13.9 nM
O=P([O-])(O)C(O)(CC[S+]1CCCC1)P(=O)(O)O (stereo not drawn),5.62 µM,26 µM,2.92 nM
O=P([O-])(O)C(O)(C[S+]1CCCCC1)P(=O)(O)O (stereo not drawn),6.58 µM,75.5 µM,3.42 nM
O=P([O-])(O)C(O)(CCC[S+]1CCCC1)P(=O)(O)O (stereo not drawn),101 µM,376 µM,9.84 nM
CCCCCCCC[S+](C)CCC(O)(P(=O)([O-])O)P(=O)(O)O (stereo not drawn),4.94 µM,96.4 µM,12.5 nM
